# According to publication PMC8906008 (Antiviral Research, 2022):
# Target: SARS-CoV-2 nsp5 (nsp4-5-6 WT) (Severe acute respiratory syndrome coronavirus 2, UniProt P0DTD1)
compound,measurement,value
"Cc1sc2c(c1C)C(c1ccc(Cl)cc1)=N[C@@H](CC(=O)NCCCCCCCCNC(=O)COc1cccc3c1C(=O)N(C1CCC(=O)NC1=O)C3=O)c1nnc(C)n1-2 (some centres unmarked) [Compound #2, dBET6]",Primary screen nsp5-WT RLU (%),17.3%
same,Secondary screen nsp5-WT RLU (%),15.2 ± 1.0%
